Literature values as cited in patent US11568956B2, “Methods for identifying inhibitors of amyloid protein aggregation” (Treventis Corporation, priority 2008, dated 2023).

The chains behind the UniProt entries cited, without tags or fusion partners. Where a name states a change or a piece, a line headed by the entry shows the natural chain unless it says otherwise.
UniProt P05067: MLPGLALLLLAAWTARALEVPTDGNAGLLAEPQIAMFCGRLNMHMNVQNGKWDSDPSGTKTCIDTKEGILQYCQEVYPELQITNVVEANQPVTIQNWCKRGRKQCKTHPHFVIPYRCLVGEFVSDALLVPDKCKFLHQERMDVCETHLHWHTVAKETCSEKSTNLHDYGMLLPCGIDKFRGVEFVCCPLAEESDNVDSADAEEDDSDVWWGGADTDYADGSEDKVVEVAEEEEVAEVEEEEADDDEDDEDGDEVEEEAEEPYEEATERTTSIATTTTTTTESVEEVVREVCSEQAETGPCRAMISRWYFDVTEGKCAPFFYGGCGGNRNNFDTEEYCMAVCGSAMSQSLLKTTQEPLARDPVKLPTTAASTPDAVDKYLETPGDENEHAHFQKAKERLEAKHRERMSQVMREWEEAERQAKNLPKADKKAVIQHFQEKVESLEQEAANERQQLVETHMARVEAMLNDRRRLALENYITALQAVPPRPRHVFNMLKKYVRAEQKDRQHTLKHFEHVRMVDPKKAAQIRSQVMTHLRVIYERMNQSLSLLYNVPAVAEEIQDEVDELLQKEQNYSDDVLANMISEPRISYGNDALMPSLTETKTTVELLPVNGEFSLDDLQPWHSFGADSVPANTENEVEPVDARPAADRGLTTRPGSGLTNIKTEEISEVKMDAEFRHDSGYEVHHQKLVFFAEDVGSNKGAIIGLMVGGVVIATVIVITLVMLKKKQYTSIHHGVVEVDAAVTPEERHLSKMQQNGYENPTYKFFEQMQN

Target: Aβ (Homo sapiens, UniProt P05067)
Conditions: read-out: Expt (IC50); unit not in the table, μM; Masuda test set; cited from earlier work

For quinacrine mustard, which IC50 is on record?
Its IC50 is 1.2 µM.
